Source: PubChem BioAssay AID651965 (National Center for Advancing Translational Sciences (NCATS), 2013)
The entries are a selection whose mix differs from that of the whole data set. Records with an inconclusive call do not appear. Active and inactive are the calls of the source. The call rests on the fitted dose curve; in most records, active means well fitted falling curve with a large enough effect; inconclusive means small, poorly fitted or top-dose-only effect; inactive means no such curve, though single readings can be large or run the other way.

The chains behind the UniProt entries cited, without tags or fusion partners.
UniProt P80244, whole entry: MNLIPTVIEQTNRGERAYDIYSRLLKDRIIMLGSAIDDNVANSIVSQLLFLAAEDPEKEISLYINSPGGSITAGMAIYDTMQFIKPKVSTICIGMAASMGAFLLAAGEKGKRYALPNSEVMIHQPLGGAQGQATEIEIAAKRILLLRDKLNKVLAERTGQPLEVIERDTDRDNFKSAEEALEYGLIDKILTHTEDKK

target: ATP-dependent Clp protease proteolytic subunit (Bacillus subtilis (strain 168)) (UniProt P80244); test: qHTS Assay for Activators of ClpP; further: the source files actives as falling curves though it sought activators and does not explain the sign; nearly all actives have a fitted effect of over 65% in size; details: purified B. subtilis ClpP, FRET peptide cleavage, 20 min; at 57.5 µM (top of the series)

| SMILES | activity change, negative = active |
| --- | --- |
| CCOC(=O)c1ccc(NP(C)(=O)Oc2ccc(F)cc2)cc1 (stereo not given) | inactive: 1.01% |
| O=[N+]([O-])c1cc([N+](=O)[O-])c2nc[nH]c2c1 | inactive: -0.404% |
| CC(NC(=O)COC(=O)C(O)(c1ccccc1)c1ccccc1)c1ccccc1 (stereo not given) | inactive: -0.526% |
| Cc1ccccc1OP(=O)(Nc1ccccn1)Oc1ccccc1C | inactive: 0.231% |
| CP(=O)(Nc1ccccc1)Oc1ccc(F)cc1 (stereo not given) | inactive: -0.682% |
| O=C(OC1CN2CCC1CC2)c1ccccc1 (stereo not given) | inactive: 35.3% |
| CCN(CC)CCCOC(=O)C(O)(c1ccccc1)C1CCCCC1 (stereo not given) | inactive: 1.14% |
| CCC(=O)N1C2C3N(C(=O)CC)C1C1N(C(=O)CC)C(C(N1C(=O)CC)N3C(=O)CC)N2C(=O)CC | inactive: 1.02% |
| Cc1c([N+](=O)[O-])cc([N+](=O)[O-])c(Br)c1[N+](=O)[O-] | inactive: 1.19% |
| COC(=O)c1cc2c(s1)N=C(c1ccccc1)N(C)P2(=O)N1CCOCC1 (stereo not given) | inactive: -0.544% |
| CC(=O)NC(SC(=S)N(CC(C)C)CC(C)C)C(Cl)(Cl)Cl (stereo not given) | inactive: -18.5% |
| CC(C)c1ccc(OP(C)(=O)Nc2ccc(SC(F)(F)F)cc2)cc1 (stereo not given) | inactive: 2.2% |
| CP(=O)(Nc1ccccc1F)Oc1ccccc1 (stereo not given) | inactive: 0.0304% |
| O=P1(Nc2nc3ccc(Cl)cc3s2)COc2ccccc2O1 (stereo not given) | inactive: 9.52% |
| CCOc1ccc(C2=NCC(CBr)S2)cc1 (stereo not given) | inactive: -0.416% |
| CC(=O)Nc1ccc(Oc2c([N+](=O)[O-])cc([N+](=O)[O-])cc2[N+](=O)[O-])cc1 | inactive: 0.233% |
| Cc1ccccc1CN(C)C(=O)COC(=O)C(O)(c1ccccc1)c1ccccc1 | inactive: -4.3% |
| O=C(OCCN1CCN(CCOCc2ccccc2)CC1)C(O)(c1ccccc1)c1ccccc1 | inactive: -1.51% |
| C[C@H]1OP(=O)(Oc2ccccc2)C[C@@H]2O[C@@H]21 (stereo not given in full) | inactive: -0.722% |
| C[C@@H]1C=CCP(=O)(Oc2ccccc2)O1 (stereo not given in full) | inactive: -0.308% |

| SMILES | activity change, negative = active |
| --- | --- |
| N#C/C(=C\c1ccc(N(CCBr)CCBr)cc1)C(N)=O | inactive: 1.6% |
| COC(=O)C1(C)COP(=O)(NCc2ccccc2)OC1 (stereo not given) | inactive: 0.472% |
| c1nnnn1CCn1cnnn1 | inactive: -0.315% |
| CCOP(C)(=S)SCC(=O)NC(C)(CC)C(=O)O (stereo not given) | inactive: 0.158% |
| CC(C)C(=O)NC(Sc1ccccc1)C(Cl)(Cl)Cl (stereo not given) | inactive: 0.412% |
| CP(=O)(Nc1ccc(SC(F)(F)F)cc1)Oc1ccc(F)cc1 (stereo not given) | inactive: 1.17% |
| O=[N+]([O-])c1cc([N+](=O)[O-])c(C(F)(F)F)c([N+](=O)[O-])c1O | inactive: 1.19% |
| COc1cccc([N+](=O)[O-])c1[N+](=O)[O-] | inactive: -0.0604% |
| Cc1ccccc1NP(C)(=O)Nc1ccccc1C | inactive: 1.01% |
| CP(=O)(Nc1ccc2c(c1)OCCO2)Oc1ccccc1 (stereo not given) | inactive: -13.7% |
| CN(C)CCOC(=O)C(O)(c1ccccc1)C1CCCCC1 (stereo not given) | inactive: -0.878% |
| C[C@H]1OP(=O)(Oc2ccccc2)[C@H](O)[C@H](O)[C@H]1N=[N+]=[N-] (stereo not given in full) | inactive: 0.32% |
| CN(C)C1(CNC(=O)c2ccc(Cl)c(S(N)(=O)=O)c2)CCCCC1 | inactive: 0.313% |
| COc1ccc(OP(C)(=O)Nc2cccc(Br)c2)cc1 (stereo not given) | inactive: -0.591% |
| O=C(OC1CN2CCC1CC2)c1cccc(Cl)c1 (stereo not given) | inactive: 0.145% |
| Cc1c(C(c2ccc3c(c2)OCO3)c2c(C)n(C)n(-c3ccccc3)c2=O)c(=O)n(-c2ccccc2)n1C.O=[N+]([O-])c1cc([N+](=O)[O-])c(O)c([N+](=O)[O-])c1 | inactive: 1.05% |
| C(Cc1nn[nH]n1)Cc1nn[nH]n1 | inactive: -3.08% |
| O=[N+]([O-])c1ccc(O)c(/C=N/Nc2ccc([N+](=O)[O-])cc2[N+](=O)[O-])c1 | inactive: -2.1% |
| CC(=O)NC(SC(=S)N(C)C)C(Cl)(Cl)Cl (stereo not given) | inactive: -2.37% |
| O=[N+]([O-])c1ncn(CCn2cnc([N+](=O)[O-])n2)n1 | inactive: -1.53% |

| SMILES | activity change, negative = active |
| --- | --- |
| CP(=O)(OC12CC3CC(CC(C3)C1)C2)OC12CC3CC(CC(C3)C1)C2 | inactive: 0.862% |
| CCOC(=O)c1ccc(NP(C)(=O)Oc2ccc(Cl)cc2)cc1 (stereo not given) | inactive: -3.53% |
| O=P(/N=c1/nc(-c2ccccc2)n(-c2ccccc2)s1)(Nc1ccccc1)Nc1ccccc1 | inactive: 2.82% |
| O=C(Nc1cc([As](=O)(O)O)ccc1O)c1ccccc1 | inactive: -2.49% |
| Cc1cc(C=O)ccc1N(CCCl)CCCl | inactive: -2.58% |
| Nc1ccc2c(ccc3cccnc32)n1.O=[N+]([O-])c1cc([N+](=O)[O-])c(O)c([N+](=O)[O-])c1 | inactive: 4.11% |
| O=C(O)CNc1ccc([As](=O)(O)O)cc1 | inactive: -1.77% |
| COC(=O)C1(C)COP(=O)(Nc2ccccc2)OC1 (stereo not given) | inactive: -0.978% |
| O=[N+]([O-])c1cccc(NC2=NCC(CBr)S2)c1 (stereo not given) | inactive: -0.407% |
| O=[N+]([O-])c1ncn(CCn2ncnc2[N+](=O)[O-])n1 | inactive: 0.43% |
| CC(C)(C)C(=O)NC(Sc1ccncn1)C(Cl)(Cl)Cl (stereo not given) | inactive: 1.06% |
| CP(=O)(Oc1ccccc1)N1CCOC1=O (stereo not given) | inactive: -5.18% |
| CCc1nc2c(n1)c1c(non1O)c1c2no[n+]1[O-] | inactive: 1.2% |
| O=[N+]([O-])c1cccc2n[nH]nc12 | inactive: 0.492% |
| CC(=O)N1C2C3N(C(C)=O)C1C1N(C(C)=O)C(C(N1C(C)=O)N3C(C)=O)N2C(C)=O | inactive: -2.19% |
| COc1ccccc1OP(C)(=O)Nc1c(C)n(C)n(-c2ccccc2)c1=O (stereo not given) | inactive: -2.02% |
| CCN(CC)CC(O)COC(=O)C(O)(c1ccccc1)C1CCCCC1 (stereo not given) | inactive: 0.199% |
| COc1ccc(OP(C)(=O)Nc2ccc(Br)cc2)cc1 (stereo not given) | inactive: 1.48% |
| COc1ccc(C2=NCC(CBr)S2)cc1 (stereo not given) | inactive: -0.0324% |
| CC1CCN(C(=O)Oc2c(Cl)cc(Cl)c3cccnc23)CC1 | inactive: -9.36% |
